From PubChem BioAssay AID1918969 (ICCB-Longwood Screening Facility, Harvard Medical School, 2023)
This is a selection; strong and weak results do not stand in their true shares. Some tests of the compounds listed are not included; inactive here does not mean inactive elsewhere. The source made the active and inactive calls. Cut-off read from the data, not from the text of the source: active = inhibition above about 27% (passing the limit was not always enough); inactive = the rest.

The molecules below were run on HCMV UL50-UL53 nuclear egress complex (human cytomegalovirus) (assay: HCMV nuclear egress complex disruptors – biochemical, HTRF (AID 1918969)). Conditions: HTRF UL50-UL53 interaction, normalized percent inhibition; hits give high values; concentration not given here.

Row | SMILES | inhibition
1 | Cc1ccc2oc(C(=O)NCC3(N(C)C)CCCCC3)c(C)c2c1 | inactive: -12.1%
2 | O=C(NCC1(N2CCOCC2)CCCCC1)c1cnc(Cl)c(Cl)c1 | inactive: -9.8%
3 | CN(C)C1(CNC(=O)c2cccc(Cl)c2)CCCCC1 | inactive: -16.4%
4 | CN(C)C1(CNC(=O)c2ccccc2F)CCCCC1 | inactive: -17.9%
5 | CN(C)C1(CNC(=O)c2ccccc2[N+](=O)[O-])CCCCC1 | inactive: -26.7%
6 | CN(C)c1ccc(C(=O)NCC2(N(C)C)CCCCC2)cc1 | inactive: -14.6%
7 | Cc1cc(C)c2c(C)c(C(=O)NCC3(N(C)C)CCCCC3)oc2c1 | inactive: -6.4%
8 | CCCCOc1ccccc1C(=O)NCC1(N(C)C)CCCCC1 | inactive: -13.3%
9 | COc1ccc(OC)c(C=C(C#N)C#N)c1 | inactive: -17.7%
10 | Cc1c(C(=O)NCC2(N(C)C)CCCCC2)oc2ccccc12 | inactive: -20.5%
11 | Cc1cc2oc(C(=O)NCC3(N(C)C)CCCCC3)c(C)c2cc1Cl | inactive: -5.9%
12 | CCOc1cccc(C(=O)NCC2(N(C)C)CCCCC2)c1 | inactive: -19.9%
13 | Cc1c(C(=O)NCC2(N(C)C)CCCCC2)oc2ccc(F)cc12 | inactive: 3.7%
14 | COc1ccc(C(=O)NCC2(N(C)C)CCCCC2)cc1Cl | inactive: -22.6%
15 | CN(C)C1(CNC(=O)c2ccncc2)CCCCC1 | inactive: -1.8%
16 | N#CC(C#N)=Cc1ccccc1 | inactive: -7.9%
17 | Cc1ccc2c(C)c(C(=O)NCC3(N(C)C)CCCCC3)oc2c1 | inactive: -19.3%
18 | O=C(OC1CN2CCC1CC2)C(CO)(c1ccccc1)c1ccccc1 (stereo unspecified) | inactive: -8%
19 | COc1cccc(C(=O)NCC2(N3CCOCC3)CCCCC2)c1 | inactive: 6.5%
20 | CC(C)COc1ccc(C(=O)NCC2(N(C)C)CCCCC2)cc1 | inactive: -35.7%
21 | Cc1ccc2c(Cl)c(C(=O)NCC3(N(C)C)CCCCC3)sc2c1 | inactive: -57.1%
22 | COc1cc(C(=O)NCC2(N(C)C)CCCCC2)cc(OC)c1OC | inactive: -18.9%
23 | Cc1cccc(C(=O)NCC2(N(C)C)CCCCC2)c1 | inactive: -29.5%
24 | CN1C2CCC1CC(OC(=O)C(O)(c1ccccc1)c1ccccc1)C2 (stereo unspecified) | inactive: -22.9%
25 | O=C(NCC1(N2CCCCC2)CCCCC1)c1ccc2c(c1)OCCO2 | inactive: -19.6%
26 | CC(C)Oc1ccc(C(=O)NCC2(N(C)C)CCCCC2)cc1 | inactive: -28%
